The numbers were not newly measured in paper PMC6824728 (International journal of pharmaceutics, 2019), which cites them from elsewhere.

The conditions of the data set: 37°C; ref Kim and Hsieh, 2001; Wu and Hopkins, 1999; cited from earlier work.

Turning to “D-α-tocopherol polyethylene glycol 1000 succinate [TPGS]”, the Critical micelle concentration is given as 0.02 % (w/w).
